Sequences of proteins named here, by UniProt entry; tags and fusion partners are left off. A change or cut given only in a name is not applied to a line headed by its entry.
UniProt Q9UGN5: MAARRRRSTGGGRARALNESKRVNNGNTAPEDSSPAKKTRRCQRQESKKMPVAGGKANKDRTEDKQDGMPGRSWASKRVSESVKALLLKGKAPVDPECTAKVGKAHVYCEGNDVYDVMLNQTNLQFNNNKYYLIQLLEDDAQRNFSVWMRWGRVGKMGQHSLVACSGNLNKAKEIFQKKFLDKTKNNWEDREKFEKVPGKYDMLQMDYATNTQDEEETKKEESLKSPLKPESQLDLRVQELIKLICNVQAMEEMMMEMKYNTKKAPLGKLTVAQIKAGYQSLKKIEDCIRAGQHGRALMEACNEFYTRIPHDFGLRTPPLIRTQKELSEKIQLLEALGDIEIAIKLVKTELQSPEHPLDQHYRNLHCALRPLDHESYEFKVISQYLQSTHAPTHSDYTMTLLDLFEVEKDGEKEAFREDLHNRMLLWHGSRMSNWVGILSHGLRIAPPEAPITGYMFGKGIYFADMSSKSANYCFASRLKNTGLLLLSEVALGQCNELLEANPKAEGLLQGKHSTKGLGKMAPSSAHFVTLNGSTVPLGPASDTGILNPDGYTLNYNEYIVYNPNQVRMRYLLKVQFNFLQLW
UniProt P09874, whole entry: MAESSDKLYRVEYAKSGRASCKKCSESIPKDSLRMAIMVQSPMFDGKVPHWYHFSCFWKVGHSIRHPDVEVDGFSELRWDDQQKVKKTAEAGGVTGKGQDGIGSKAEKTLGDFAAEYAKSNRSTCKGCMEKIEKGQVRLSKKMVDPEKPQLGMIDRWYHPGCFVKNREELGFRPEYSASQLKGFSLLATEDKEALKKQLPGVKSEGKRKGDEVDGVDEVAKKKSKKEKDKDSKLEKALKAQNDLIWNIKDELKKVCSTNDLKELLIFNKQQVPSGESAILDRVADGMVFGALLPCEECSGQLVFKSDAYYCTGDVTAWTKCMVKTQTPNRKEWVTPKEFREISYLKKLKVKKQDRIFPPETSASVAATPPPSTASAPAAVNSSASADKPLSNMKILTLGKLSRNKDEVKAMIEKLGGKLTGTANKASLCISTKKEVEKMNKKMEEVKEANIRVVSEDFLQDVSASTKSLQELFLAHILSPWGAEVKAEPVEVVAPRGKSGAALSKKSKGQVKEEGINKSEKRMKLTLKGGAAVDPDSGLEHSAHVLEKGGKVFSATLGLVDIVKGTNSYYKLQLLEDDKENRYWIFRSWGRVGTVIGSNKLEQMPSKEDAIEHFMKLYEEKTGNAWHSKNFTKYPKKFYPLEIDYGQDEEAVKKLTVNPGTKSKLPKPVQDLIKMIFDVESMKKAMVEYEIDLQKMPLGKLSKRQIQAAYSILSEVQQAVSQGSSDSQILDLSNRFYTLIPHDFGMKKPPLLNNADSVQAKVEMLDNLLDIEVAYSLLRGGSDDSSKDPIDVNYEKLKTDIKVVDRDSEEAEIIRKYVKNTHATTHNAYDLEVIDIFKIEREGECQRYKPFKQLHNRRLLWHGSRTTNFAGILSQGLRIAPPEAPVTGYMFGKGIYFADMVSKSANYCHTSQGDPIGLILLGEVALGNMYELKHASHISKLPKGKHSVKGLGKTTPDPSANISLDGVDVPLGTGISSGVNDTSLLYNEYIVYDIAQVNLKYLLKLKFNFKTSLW

In ChEMBL document CHEMBL3826913 (Eur J Med Chem, 2016):

How the values were obtained:
HT-29 [1] = assay: cells; details: Homo sapiens, HT-29, read-out: INH
HT-29 [2] = assay: cells; details: Homo sapiens, HT-29, read-out: INH; remark: listed apart in the source
HT-29 [3] = assay: cells; details: Homo sapiens, HT-29, read-out: INH; remark: listed apart in the source
[4] = molecular target: Poly [ADP-ribose] polymerase 2 (Homo sapiens, UniProt Q9UGN5)
[5] = molecular target: Poly [ADP-ribose] polymerase 1 (Homo sapiens, UniProt P09874)
[6] = molecular target: Poly [ADP-ribose] polymerase tankyrase-2 (Homo sapiens, UniProt Q9H2K2); assay: biochemical
[7] = molecular target: T1, Poly [ADP-ribose] polymerase tankyrase-1 (Homo sapiens, UniProt O95271)
T1 sequence (O95271 whole entry): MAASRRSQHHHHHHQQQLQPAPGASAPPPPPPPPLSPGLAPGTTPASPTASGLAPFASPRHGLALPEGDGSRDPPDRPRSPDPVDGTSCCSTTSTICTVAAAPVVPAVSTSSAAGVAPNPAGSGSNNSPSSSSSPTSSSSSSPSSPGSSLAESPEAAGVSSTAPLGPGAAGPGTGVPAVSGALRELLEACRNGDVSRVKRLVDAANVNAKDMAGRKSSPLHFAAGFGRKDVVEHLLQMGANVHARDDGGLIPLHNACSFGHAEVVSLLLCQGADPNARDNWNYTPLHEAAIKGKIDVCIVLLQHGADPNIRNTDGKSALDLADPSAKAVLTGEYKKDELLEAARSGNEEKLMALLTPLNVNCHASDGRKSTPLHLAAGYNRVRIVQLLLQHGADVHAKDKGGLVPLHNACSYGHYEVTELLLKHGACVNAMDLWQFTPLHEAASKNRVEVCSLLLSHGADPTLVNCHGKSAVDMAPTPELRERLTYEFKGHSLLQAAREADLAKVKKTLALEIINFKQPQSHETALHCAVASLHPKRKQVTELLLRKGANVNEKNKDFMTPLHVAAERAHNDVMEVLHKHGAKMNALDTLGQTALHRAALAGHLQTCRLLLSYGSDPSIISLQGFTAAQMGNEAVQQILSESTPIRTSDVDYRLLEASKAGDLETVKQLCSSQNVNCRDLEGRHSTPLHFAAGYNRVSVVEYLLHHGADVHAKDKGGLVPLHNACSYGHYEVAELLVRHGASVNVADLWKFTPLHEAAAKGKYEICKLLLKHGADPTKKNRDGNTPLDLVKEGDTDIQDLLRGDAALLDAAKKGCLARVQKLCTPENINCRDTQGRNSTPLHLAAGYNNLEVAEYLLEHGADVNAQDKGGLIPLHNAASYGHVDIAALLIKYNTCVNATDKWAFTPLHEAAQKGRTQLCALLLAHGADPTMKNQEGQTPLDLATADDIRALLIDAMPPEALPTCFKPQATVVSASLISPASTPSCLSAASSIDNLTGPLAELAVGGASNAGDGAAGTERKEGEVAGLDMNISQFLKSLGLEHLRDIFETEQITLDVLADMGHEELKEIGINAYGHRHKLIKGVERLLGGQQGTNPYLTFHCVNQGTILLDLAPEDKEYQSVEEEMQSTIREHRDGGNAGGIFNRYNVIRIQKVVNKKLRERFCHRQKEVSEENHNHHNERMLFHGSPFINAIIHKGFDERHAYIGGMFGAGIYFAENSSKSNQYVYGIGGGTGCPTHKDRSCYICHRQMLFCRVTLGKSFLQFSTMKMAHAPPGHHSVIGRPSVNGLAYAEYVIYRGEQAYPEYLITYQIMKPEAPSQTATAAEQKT

O=c1[nH]c(-c2ccc(Cl)cc2)nc2ccccc12
inhibition at 100 µM (HT-29 [1]): 5%
inhibition at 1 µM (HT-29 [2]): 0%
inhibition at 10 µM (HT-29 [3]): 0%
IC50 [4]: 2600 nM
IC50 [5]: > 100000 nM

Cc1cccc2c(O)nc(-c3ccccc3)nc12
inhibition at 100 µM (HT-29 [1]): 14%
inhibition at 1 µM (HT-29 [2]): 10%
inhibition at 10 µM (HT-29 [3]): 10%

Cc1cccc2c(O)nc(-c3ccc(O)cc3)nc12
inhibition at 100 µM (HT-29 [1]): 72%
inhibition at 1 µM (HT-29 [2]): 8%
inhibition at 10 µM (HT-29 [3]): 15%

Nc1ccc(-c2nc(O)c3cccc(O)c3n2)cc1
inhibition at 100 µM (HT-29 [1]): 87%
inhibition at 1 µM (HT-29 [2]): 0%
inhibition at 10 µM (HT-29 [3]): 23%
IC50 [6]: 219 nM
IC50 [5]: 289 nM
IC50 [7]: 83 nM

COc1ccc(-c2nc(O)c3cccc(C)c3n2)cc1
inhibition at 100 µM (HT-29 [1]): 11%
inhibition at 1 µM (HT-29 [2]): 14%
inhibition at 10 µM (HT-29 [3]): 1%

Oc1ccc(-c2nc(O)c3cccc(O)c3n2)cc1
inhibition at 100 µM (HT-29 [1]): 86%
inhibition at 1 µM (HT-29 [2]): 0%
inhibition at 10 µM (HT-29 [3]): 20%
IC50 [6]: 86 nM
IC50 [5]: 856 nM
IC50 [7]: 156 nM

Cc1cccc2c(O)nc(-c3ccc([N+](=O)[O-])cc3)nc12
inhibition at 100 µM (HT-29 [1]): 0%
inhibition at 1 µM (HT-29 [2]): 2%
inhibition at 10 µM (HT-29 [3]): 0%

Oc1nc(-c2ccc(C(F)(F)F)cc2)nc2c(O)cccc12
inhibition at 100 µM (HT-29 [1]): 0%
inhibition at 1 µM (HT-29 [2]): 2%
inhibition at 10 µM (HT-29 [3]): 0%
IC50 [6]: 25 nM
IC50 [5]: 3110 nM
IC50 [7]: 53 nM

COc1cccc2c(O)nc(-c3ccc(N)cc3)nc12
inhibition at 100 µM (HT-29 [1]): 22%
inhibition at 1 µM (HT-29 [2]): 0%
inhibition at 10 µM (HT-29 [3]): 0%
IC50 [6]: 1080 nM
IC50 [5]: 1590 nM
IC50 [7]: 1280 nM

Cc1cccc2c(=O)[nH]c(-c3ccc(CNC(=O)OCc4ccccc4)cc3)nc12
inhibition at 100 µM (HT-29 [1]): 4%
inhibition at 1 µM (HT-29 [2]): 13%
inhibition at 10 µM (HT-29 [3]): 12%
IC50 [4]: > 100000 nM

Cc1cccc2c(=O)[nH]c(-c3ccc(Br)cc3)nc12
inhibition at 100 µM (HT-29 [1]): 0%
inhibition at 1 µM (HT-29 [2]): 6%
inhibition at 10 µM (HT-29 [3]): 6%
IC50 [4]: 10500 nM

Cc1cccc2c(=O)[nH]c(-c3ccc(F)cc3)nc12
inhibition at 100 µM (HT-29 [1]): 0%
inhibition at 1 µM (HT-29 [2]): 8%
inhibition at 10 µM (HT-29 [3]): 10%
IC50 [4]: 683 nM

Cc1cccc2c(=O)[nH]c(-c3ccc(Cl)cc3)nc12
inhibition at 100 µM (HT-29 [1]): 0%
inhibition at 1 µM (HT-29 [2]): 0%
inhibition at 10 µM (HT-29 [3]): 60%
IC50 [4]: 6350 nM

Cc1ccc(-c2nc3c(C)cccc3c(=O)[nH]2)cc1
inhibition at 100 µM (HT-29 [1]): 2%
inhibition at 1 µM (HT-29 [2]): 2%
inhibition at 10 µM (HT-29 [3]): 3%

O=c1[nH]c(-c2ccc(Cl)cc2)nc2c(O)cccc12
inhibition at 100 µM (HT-29 [1]): 68%
inhibition at 1 µM (HT-29 [2]): 0%
inhibition at 10 µM (HT-29 [3]): 60%
IC50 [6]: 49 nM
IC50 [5]: 645 nM
IC50 [7]: 46 nM

Cc1cccc2c(=O)[nH]c(-c3ccc(CN)cc3)nc12
inhibition at 100 µM (HT-29 [1]): 100%
inhibition at 1 µM (HT-29 [2]): 0%
inhibition at 10 µM (HT-29 [3]): 4%
IC50 [6]: 43 nM
IC50 [5]: 266 nM
IC50 [7]: 907 nM

O=c1[nH]c(-c2ccc(O)cc2)nc2ccccc12
inhibition at 100 µM (HT-29 [1]): 60%
inhibition at 1 µM (HT-29 [2]): 13%
inhibition at 10 µM (HT-29 [3]): 12%

Cc1ccc(-c2nc3ccccc3c(=O)[nH]2)cc1
inhibition at 100 µM (HT-29 [1]): 4%
inhibition at 1 µM (HT-29 [2]): 9%
inhibition at 10 µM (HT-29 [3]): 36%
IC50 [6]: 540 nM
IC50 [5]: 424 nM
IC50 [7]: 346 nM

COc1ccc(-c2nc(O)c3ccccc3n2)cc1
inhibition at 100 µM (HT-29 [1]): 0%
inhibition at 1 µM (HT-29 [2]): 10%
inhibition at 10 µM (HT-29 [3]): 0%

COc1ccc(-c2nc3ccccc3c(=O)[nH]2)cc1
IC50 [6]: 611 nM
IC50 [5]: 2720 nM
IC50 [7]: 250 nM

O=[N+]([O-])c1ccc(-c2nc(O)c3cccc(O)c3n2)cc1
inhibition at 100 µM (HT-29 [1]): 0%
inhibition at 1 µM (HT-29 [2]): 0%
inhibition at 10 µM (HT-29 [3]): 0%
IC50 [6]: 191 nM
IC50 [5]: 105 nM
IC50 [7]: 58 nM

COc1ccc(-c2nc(O)c3cccc(OC)c3n2)cc1
inhibition at 100 µM (HT-29 [1]): 8%
inhibition at 1 µM (HT-29 [2]): 0%
inhibition at 10 µM (HT-29 [3]): 1%
IC50 [6]: 128 nM
IC50 [5]: 1240 nM
IC50 [7]: 346 nM

Oc1nc(-c2ccccc2)nc2c(O)cccc12
inhibition at 100 µM (HT-29 [1]): 68%
inhibition at 1 µM (HT-29 [2]): 5%
inhibition at 10 µM (HT-29 [3]): 70%
IC50 [6]: 180 nM
IC50 [5]: 1030 nM
IC50 [7]: 195 nM

Cc1cccc2c(O)nc(-c3ccc(C(F)(F)F)cc3)nc12
inhibition at 100 µM (HT-29 [1]): 0%
inhibition at 1 µM (HT-29 [2]): 0%
inhibition at 10 µM (HT-29 [3]): 7%
IC50 [4]: 3100 nM

Cc1ccc(-c2nc3c(O)cccc3c(=O)[nH]2)cc1
inhibition at 100 µM (HT-29 [1]): 48%
inhibition at 1 µM (HT-29 [2]): 0%
inhibition at 10 µM (HT-29 [3]): 28%
IC50 [6]: 44 nM
IC50 [5]: 559 nM
IC50 [7]: 22 nM

COc1cccc2c(=O)[nH]c(-c3ccc(C)cc3)nc12
inhibition at 100 µM (HT-29 [1]): 20%
inhibition at 1 µM (HT-29 [2]): 0%
inhibition at 10 µM (HT-29 [3]): 0%
IC50 [6]: 167 nM
IC50 [5]: 2400 nM
IC50 [7]: 153 nM

O=c1[nH]c(-c2ccc(Br)cc2)nc2c(O)cccc12
inhibition at 100 µM (HT-29 [1]): 77%
inhibition at 1 µM (HT-29 [2]): 0%
inhibition at 10 µM (HT-29 [3]): 65%
IC50 [6]: 15 nM
IC50 [5]: 130 nM
IC50 [7]: 47 nM

O=c1[nH]c(-c2ccccc2)nc2cscc12
inhibition at 100 µM (HT-29 [1]): 19%
inhibition at 1 µM (HT-29 [2]): 4%
inhibition at 10 µM (HT-29 [3]): 0%

Nc1ccc(-c2nc3ccccc3c(=O)[nH]2)cc1
inhibition at 100 µM (HT-29 [1]): 39%
inhibition at 1 µM (HT-29 [2]): 0%
inhibition at 10 µM (HT-29 [3]): 5%
IC50 [6]: 690 nM
IC50 [5]: 1300 nM
IC50 [7]: 786 nM

O=C(NCc1ccc(-c2nc3ccccc3c(=O)[nH]2)cc1)OCc1ccccc1
IC50 [6]: 45 nM
IC50 [4]: > 10000 nM
IC50 [5]: > 10000 nM

O=c1[nH]c(-c2ccc(F)cc2)nc2c(O)cccc12
inhibition at 100 µM (HT-29 [1]): 0%
inhibition at 1 µM (HT-29 [2]): 0%
inhibition at 10 µM (HT-29 [3]): 0%
IC50 [6]: 263 nM
IC50 [5]: 1360 nM
IC50 [7]: 101 nM

Cc1cccc2c(O)nc(-c3ccc(N)cc3)nc12
inhibition at 100 µM (HT-29 [1]): 0%
inhibition at 1 µM (HT-29 [2]): 0%
inhibition at 10 µM (HT-29 [3]): 0%
